Data: patent US20100120763A1, “IMIDAZO[5,1-C][1,2,4]BENZOTRIAZINE DERIVATIVES AS INHIBITORS OF PHOSPHODIESTERASES” (priority 2008, published 2010)
Read-outs that look alike come from different tables or passages of the source.

Protein sequences, listed by entry. Tags and fused reporters are not part of them.
UniProt O00408, whole entry: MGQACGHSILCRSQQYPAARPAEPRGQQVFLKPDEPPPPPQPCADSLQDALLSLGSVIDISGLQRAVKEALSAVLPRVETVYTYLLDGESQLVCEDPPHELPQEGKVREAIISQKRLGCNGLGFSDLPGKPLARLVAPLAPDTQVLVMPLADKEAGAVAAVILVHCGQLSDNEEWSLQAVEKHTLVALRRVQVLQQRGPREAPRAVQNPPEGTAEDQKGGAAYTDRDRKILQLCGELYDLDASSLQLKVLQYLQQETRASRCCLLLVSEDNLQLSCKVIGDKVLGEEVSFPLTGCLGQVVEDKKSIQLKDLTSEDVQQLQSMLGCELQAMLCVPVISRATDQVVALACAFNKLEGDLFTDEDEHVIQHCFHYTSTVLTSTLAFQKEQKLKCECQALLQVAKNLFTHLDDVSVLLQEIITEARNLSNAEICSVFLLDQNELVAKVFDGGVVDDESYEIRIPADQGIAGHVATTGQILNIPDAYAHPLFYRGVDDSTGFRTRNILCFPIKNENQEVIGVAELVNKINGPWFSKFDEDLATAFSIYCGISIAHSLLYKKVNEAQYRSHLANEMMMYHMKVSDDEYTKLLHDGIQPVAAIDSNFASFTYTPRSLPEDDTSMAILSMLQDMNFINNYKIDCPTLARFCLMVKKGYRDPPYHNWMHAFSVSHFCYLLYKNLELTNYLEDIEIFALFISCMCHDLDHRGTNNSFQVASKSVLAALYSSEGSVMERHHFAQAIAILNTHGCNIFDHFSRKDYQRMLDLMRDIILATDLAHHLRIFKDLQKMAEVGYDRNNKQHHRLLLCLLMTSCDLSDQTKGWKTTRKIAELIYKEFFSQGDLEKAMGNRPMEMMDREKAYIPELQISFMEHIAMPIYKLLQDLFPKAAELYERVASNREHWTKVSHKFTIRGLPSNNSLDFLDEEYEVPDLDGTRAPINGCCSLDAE

Target: T1, PDE2A (Homo sapiens, UniProt O00408)
T1 construct: made in house; host or cells: SF21 insect cells (baculovirus)
Assay: Inhibition of recombinant PDE2A (expressed in baculovirus/SF21-cells), [3H]-cAMP SPA
Type: biochemical
Description: Inhibition of Recombinant PDE2A (Expressed in Baculovirus/SF21-Cells)
PDE2A (NM002599) was cloned and the gene was inserted in the baculovirus and the enzyme-protein expressed in SF21-cells. The enzyme was isolated from these cells by harvesting the cells by an centrifugation at 200 g to collect the cells. The cells were resuspended in 50 mM Tris-HCl/5 mM MgCl2 buffer (pH=7.4) (Sigma, Deisenhofen, Germany; Merck, Darmstadt, Germany) and lysed by a sonication of the cells (three times for 15 seconds, Labsonic U, Fa. Braun, Degersheim, Switzerland, level “high”). The membrane fraction of PDE2A was obtained by a centrifugation at 48 000 g for 1 h, resuspended in buffer and stored at −70° C.
PDE2A activity was determined in a one step procedure in microtiterplates. The reaction mixture of 100 μl contained 50 mM Tris-HCl/5 mM MgCl2 buffer (pH=7.4) (Sigma, Deisenhofen, Germany; Merck, Darmstadt, Germany), 0.5 μM [3H]-cAMP (Amersham, Buckinghamshire, UK), 1000 nM cGMP and the enzyme. Non-specific enzyme activity was tested in the absence of cGMP. The reaction was initiated by addition of the substrate solution and was carried out at 37° C. for 30 minutes. Enzymatic activity then was stopped by addition of 25 μl SPA-beads (Amersham-Pharmacia). One hour later the mixture was measured in a liquid scintillation counter for microtiterplates (Microbeta Trilux). For pipetting of the incubation mixture the robot Biomek (Fa. Beckman) was routinely used.
For determination of IC50 values the Hill-plot, 2-parameter-model, was used.

[1] = recombinant PDE2A, membrane fraction, 0.5 μM [3H]-cAMP, 1000 nM cGMP, 37° C., 30 minutes, read-out: PDE2A IC50

Compound	IC50 [1] [µM]	IC50 [µM]
8-fluoro-6-methoxy-3-methyl-1-(2-methylpyridin-3-yl)imidazo[5,1-c][1,2,4]benzotriazine [Example 130]	1.27	–
8-fluoro-6-methoxy-3-methyl-1-(3-methylpyridin-4-yl)imidazo[5,1-c][1,2,4]benzotriazine [Example 131]	1.22	–
COc1ccc(Cl)cc1-c1nc(C)c2nnc3c(OC)cc(C(F)(F)F)cc3n12 [Example 142, 1-(5-Chloro-2-methoxyphenyl)-6-methoxy-3-methyl-8-(trifluoromethyl)benzo[e]imidazo[5,1-c][1,2,4]triazine]	–	1.22
